Patent US11434246B2, “EP4 antagonists” (Eisai R&D Management Co., Ltd., priority 2015, dated 2022)

Chains of the proteins cited; added tags and fusions are not shown.
UniProt P35408, whole entry: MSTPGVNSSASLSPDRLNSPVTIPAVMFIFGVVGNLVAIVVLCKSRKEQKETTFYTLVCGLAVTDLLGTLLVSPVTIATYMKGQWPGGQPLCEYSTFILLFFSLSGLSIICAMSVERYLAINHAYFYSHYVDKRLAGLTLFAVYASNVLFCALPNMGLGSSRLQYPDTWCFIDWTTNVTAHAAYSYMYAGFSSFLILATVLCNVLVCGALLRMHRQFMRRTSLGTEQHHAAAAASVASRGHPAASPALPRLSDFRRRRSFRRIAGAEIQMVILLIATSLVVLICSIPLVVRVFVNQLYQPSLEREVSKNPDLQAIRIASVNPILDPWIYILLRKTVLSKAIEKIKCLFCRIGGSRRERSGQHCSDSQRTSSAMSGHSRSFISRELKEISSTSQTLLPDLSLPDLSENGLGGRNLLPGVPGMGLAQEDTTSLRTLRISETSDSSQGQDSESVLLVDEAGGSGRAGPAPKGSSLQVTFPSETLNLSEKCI

Target: EP4 (Homo sapiens, UniProt P35408)
Experiment: EP4 Antagonism by CRE-PLAP Reporter Assay (SE302 cells, PGE2-stimulated)
Conditions: read-out: CRE-PLAP; SE302 (HEK293) cells, 3 ng/mL PGE2, overnight; single or multiple assay average values
From the text: PGE2 and [^3H]-labelled PGE2 were purchased from Cayman Chemical (Ann Arbor, Mich.) and Perkin Elmer (Waltham, Mass.), respectively. Mouse breast 4T1 cells (CRL-2539) were obtained from American Tissue Culture Collection. SE302 cell line is a clone of the HEK293 cells containing cAMP response element (CRE) promoter that when activated drives secretion of placental-like alkaline phosphatase (PLAP). […]
EP4 Antagonism by CRE-PLAP Reporter Assay: SE302 cells were maintained in DMEM/F12 (50:50) (MediaTech) supplemented with 10% FBS (Tissue Culture Biologicals) plus penicillin/streptomycin. […] Cells were then stimulated with 3 ng/mL of PGE2 in the presence or absence of various concentrations of test compound overnight, and PLAP activity was measured by mixing 15 μL of culture supernatants with 75 μL of Lumi-phos (Lumigen, Inc.) and 60 μL of assay buffer containing 8 mmol/L MgSO4 in 0.1 mol/L carbonate-bicarbonate buffer pH11 in a new 96-well black plate and incubated for 2 h at room temperature. The intensity of luminescence, which reflected the PLAP activity in the supernatant, was quantified with an Envision 2101 Multilabel Reader. […] IC50 value for each individual experiment was calculated using GraphPad Prism 6.02 (Lake Forest, Calif.) with % of control values. […]

Compound `C[C@H](NC(=O)c1c(C(F)(F)F)nn2c1N(c1cccc(C(F)(F)F)c1)CC2)c1ccc(C(=O)O)cc1` has an IC50 of 0.1 µM.
